This is an account of results in publication PMC8533211, “Computationally Assisted Lead Optimization of Novel Potent and Selective MAO-B Inhibitors” (Biomedicines, 2021).

Chains of the proteins cited; added tags and fusions are not shown.
UniProt P27338, whole entry: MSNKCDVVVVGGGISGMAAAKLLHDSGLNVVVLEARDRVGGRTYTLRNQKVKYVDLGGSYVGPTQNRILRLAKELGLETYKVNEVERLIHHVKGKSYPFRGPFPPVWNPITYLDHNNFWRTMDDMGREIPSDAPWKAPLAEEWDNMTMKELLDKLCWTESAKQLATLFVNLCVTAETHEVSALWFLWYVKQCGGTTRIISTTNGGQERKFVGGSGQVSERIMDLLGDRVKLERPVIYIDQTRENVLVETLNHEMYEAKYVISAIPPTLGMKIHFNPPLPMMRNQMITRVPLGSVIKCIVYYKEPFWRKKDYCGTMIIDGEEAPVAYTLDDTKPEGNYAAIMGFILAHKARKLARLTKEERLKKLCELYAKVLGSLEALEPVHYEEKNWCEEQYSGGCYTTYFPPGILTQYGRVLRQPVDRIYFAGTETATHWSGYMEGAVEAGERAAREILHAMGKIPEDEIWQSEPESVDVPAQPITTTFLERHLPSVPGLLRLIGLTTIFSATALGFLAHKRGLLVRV

As usually defined, the Ki is a dissociation constant, usually derived from enzyme kinetics or from competition with a known ligand. Usually IC50 stands for the concentration needed to halve the response being measured.

For test [1], the target named is T1, human recombinant MAO-B (Homo sapiens, UniProt P27338). The test is described as follows: MAO-B inhibition kinetics, Lineweaver–Burk (Ki, type of inhibition). Particulars: kynuramine 1.90–500 μM, mean ± S.D. of triplicate experiments, read-out: Monoamine Oxidase B Ki. The format is biochemical. More on the design: purchased BD Biosciences (Bedford, MA, USA). The procedure:
The controls without inhibitor were also run simultaneously. Three sets of assays were performed at varying concentrations of the substrate for each experiment: one control without inhibitor and the others at two fixed concentrations of the inhibitor. The data were analyzed by double reciprocal Lineweaver–Burk plots to determine Ki (i.e., inhibition/binding affinity) values and the kinetic data, namely Km, Vmax, and Ki values, were computed by SigmaPlot 12 [9].
Modified flavonoids (1–4) c were evaluated against MAO-B at varying concentrations of kynuramine, a nonselective substrate, to investigate the nature of inhibition of the enzymes. Based on dose–concentration inhibition, three to five concentrations (below and above the concentration of IC50 values) were selected for the inhibition kinetics experiment.

Test [2] has as its target T1, human recombinant MAO-B. The test is described as follows: kynuramine oxidation deamination assay, MAO-B inhibition (IC50). Type of test: biochemical. Particulars: kynuramine 50 μM, mean ± S.D. of triplicate. More on the design: purchased BD Biosciences (Bedford, MA, USA). Here is the method: A fixed single concentration of kynuramine substrate and varying concentrations of the test inhibitor were used to determine the IC50 values. […] These concentrations of kynuramine were twice the apparent KM value for substrate binding. […] Enzymatic reactions were performed in 50 μL of the assay mixture containing 0.1 M potassium phosphate buffer, pH 7.4. […] Reactions were initiated by the addition of 12.50 μL of MAO-A (to 5 μg/mL) or -B (to 10 μg/mL). The plate was incubated for 20 min at 37 °C, and the enzymatic reaction was terminated by the addition of 18.8 μL of 2N NaOH. Formation of the enzyme product, 4-hydroxyquinoline, was measured fluorometrically using a SpectraMax M5 fluorescence plate reader (Molecular Devices, Sunnyvale, CA, USA) with excitation (320 nm) and emission (380 nm) wavelengths and the Soft Max Pro program. The inhibition effects of enzyme activity were calculated as percent of product formation compared to the corresponding control (enzyme–substrate reaction) without inhibitors. Controls included the assays where the enzyme or the substrate was added after terminating the reaction to determine the interference with the fluorescence measurements. The IC50 values for MAO-A and -B inhibition were calculated from the concentration-dependent inhibition curves using XLFit® software.

Test [3] has as its system human recombinant MAO A. Particulars: cited from earlier work.
Test [4] relates to human recombinant MAO B. Particulars: cited from earlier work.

On to `COc1ccc(-c2cc(=O)c3c(O)cc(O)cc3o2)cc1` [Acacetin, reference compound], for which the inhibition constant (Ki) in test [1] stood at 21 ± 1.8 nM. Moreover, the IC50 in test [2] turned out to be 42 ± 2.1 nM.
In the case of `COc1cc(O)c2c(=O)c(O)c(-c3ccc(O)cc3)oc2c1` [Rhamnocitrin], in test [3], the IC50 was 51 ± 1 nM. Besides, in test [4], the “Selectivity Index MAO-A/B” value is reported as 0.02.
